Test system: bitter taste receptor (T2R)
Settings: Compound 1 3.2 mM in the presence of 825 μM rebaudioside A; HEPES buffer; FIG. 1

SMILES: CN[C@@H](Cc1c[nH]c2ccccc12)C(=O)O [Compound 1, N-methyl-L-tryptophan]
- effect on rebaudioside A response (fluorescence): Inhibition of the rebaudioside A response was observed
